Data on one substance can be found in patent publication EP0345931A1, “Certain PAF antagonist/antihistamine combinations and methods” (SCHERING CORPORATION, priority 1988, dated 1989).

The series relates to PAF-induced lethality. In words: PAF-induced lethality in mice.

Regarding platelet-activating factor [PAF], the lethality amounted to 0% (PAF 100 µg/kg i.v. through the tail vein), 60% (PAF 150 µg/kg i.v. through the tail vein) and 100% (PAF 200 µg/kg i.v. through the tail vein).
